Data taken from BindingDB's records for patent US10730853 (XW LABORATORIES INC., 2020).

Chains of the proteins cited; added tags and fusions are not shown. Lines headed by an entry give the natural chain unless they say otherwise; changes in a name come on top.
UniProt Q9Y5N1: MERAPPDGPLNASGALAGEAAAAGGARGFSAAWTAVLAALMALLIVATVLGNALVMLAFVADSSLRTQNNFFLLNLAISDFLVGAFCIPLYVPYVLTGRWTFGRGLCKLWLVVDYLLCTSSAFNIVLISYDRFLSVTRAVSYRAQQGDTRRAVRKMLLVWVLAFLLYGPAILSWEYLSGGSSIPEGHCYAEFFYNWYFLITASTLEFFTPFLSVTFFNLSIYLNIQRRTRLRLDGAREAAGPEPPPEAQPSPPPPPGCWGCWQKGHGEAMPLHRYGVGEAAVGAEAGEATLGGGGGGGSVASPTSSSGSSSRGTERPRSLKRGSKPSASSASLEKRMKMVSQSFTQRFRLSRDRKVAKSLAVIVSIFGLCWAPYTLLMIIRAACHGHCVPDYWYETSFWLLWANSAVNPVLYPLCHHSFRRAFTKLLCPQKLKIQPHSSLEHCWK

Molecular target: Histamine H3 receptor (Homo sapiens, UniProt Q9Y5N1)
Test: [35S]-GTPgammaS binding assay for determining inverse agonist
Procedure: Materials: GTPγS, [35S] […] Briefly, for membrane parathion, HEK293/Ga15/hH3R cells were grown to confluence, harvested and the cell pellets were suspended in TEL buffer (50 mM Tris-HCl buffer, 1 mM EGTA, 0.1 mM PMSF). Homogenate and centrifuge at 1,000 g for 10 min. Centrifuge the supernatant at 46,000 g for 30 min. Suspend the membrane pellet in 50 mM Tris with 0.32 M sucrose, pH 7.0. Aliquot at 1 mg protein/mL. Keep frozen and store at −80° C. until use. All compounds were prepared by dissolving in DMSO to make 10 mM stock. The 10 mM stock was used as top concentration (1 μM) to carry out 10-points, 3-fold dilution scheme using DMSO in a 96-well plate to make the compound dose plate. […] Stay on ice for 20 min. […] Incubate at room temperature for 60 min. Filter the assay plate on GF/C (non-PEI coated) plate to stop the assay. Dry GF/C plate for 1 h. […] IC50s were calculated using Prism5 with log(inhibitor) vs. response equation.

An IC50 of 17.6 nM was found for `Cc1nc2ccc(S(F)(F)(F)(F)F)cc2c(=O)n1-c1ccc(OCCCN2CCC[C@@H]2C)cc1` [US10730853, Compound XII] in this work.
